Data published in patent US12378224B2 (Dong-A Socio Holdings Co., Ltd., priority 2016, dated 2025).
pIC50: −log10 of the molar value.

By UniProt entry, the sequences of proteins in these tests, tags left out. Residues count along the entry.
UniProt Q12866, 21-999 limits assumed, stated change not applied: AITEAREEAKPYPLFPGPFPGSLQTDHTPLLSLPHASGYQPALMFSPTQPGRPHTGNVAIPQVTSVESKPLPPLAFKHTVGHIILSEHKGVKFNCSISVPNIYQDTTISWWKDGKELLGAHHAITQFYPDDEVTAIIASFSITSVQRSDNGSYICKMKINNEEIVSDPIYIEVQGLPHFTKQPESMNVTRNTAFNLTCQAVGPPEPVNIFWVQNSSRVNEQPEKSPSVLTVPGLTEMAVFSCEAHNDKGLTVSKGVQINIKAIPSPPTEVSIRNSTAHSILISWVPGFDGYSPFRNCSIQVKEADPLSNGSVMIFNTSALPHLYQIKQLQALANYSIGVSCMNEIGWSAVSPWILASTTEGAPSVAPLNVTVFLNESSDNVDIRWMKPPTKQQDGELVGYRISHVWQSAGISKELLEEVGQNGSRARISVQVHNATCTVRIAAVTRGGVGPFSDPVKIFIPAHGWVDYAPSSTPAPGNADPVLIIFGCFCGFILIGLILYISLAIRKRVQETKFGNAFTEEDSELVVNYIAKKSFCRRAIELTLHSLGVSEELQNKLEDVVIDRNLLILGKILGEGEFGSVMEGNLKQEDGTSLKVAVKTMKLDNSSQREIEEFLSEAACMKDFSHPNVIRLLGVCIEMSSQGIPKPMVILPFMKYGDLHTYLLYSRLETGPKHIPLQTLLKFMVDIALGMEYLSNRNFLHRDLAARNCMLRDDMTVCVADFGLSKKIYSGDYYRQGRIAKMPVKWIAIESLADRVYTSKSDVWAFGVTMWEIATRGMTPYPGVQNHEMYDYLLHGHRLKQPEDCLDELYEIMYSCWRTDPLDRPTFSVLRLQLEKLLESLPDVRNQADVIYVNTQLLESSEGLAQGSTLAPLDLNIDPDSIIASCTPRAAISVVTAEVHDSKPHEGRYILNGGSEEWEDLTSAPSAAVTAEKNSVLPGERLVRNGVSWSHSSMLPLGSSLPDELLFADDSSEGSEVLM
UniProt Q12866, 528-999 limits assumed: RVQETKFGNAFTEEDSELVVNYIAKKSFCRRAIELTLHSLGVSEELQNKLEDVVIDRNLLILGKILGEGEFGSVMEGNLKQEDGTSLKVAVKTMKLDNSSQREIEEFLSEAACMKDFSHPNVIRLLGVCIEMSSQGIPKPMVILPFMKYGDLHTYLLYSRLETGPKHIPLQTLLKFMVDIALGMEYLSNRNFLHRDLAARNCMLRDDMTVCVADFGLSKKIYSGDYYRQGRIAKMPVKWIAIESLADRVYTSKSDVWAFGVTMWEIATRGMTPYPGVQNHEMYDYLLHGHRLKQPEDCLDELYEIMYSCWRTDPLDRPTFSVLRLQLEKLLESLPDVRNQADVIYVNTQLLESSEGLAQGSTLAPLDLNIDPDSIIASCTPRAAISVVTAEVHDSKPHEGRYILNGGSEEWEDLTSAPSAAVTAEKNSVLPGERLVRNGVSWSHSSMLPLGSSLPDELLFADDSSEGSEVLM

Tests used:
[1] = molecular target: CD8-MerTK (Ba/F3-CDM cells) (Homo sapiens, UniProt Q12866); test: In Cell MER Kinase Assay Using BaF3 Cellular System; format: cell-based; details: Ba/F3-CDM proliferation without IL-3, 48 hours, Celltiter-Glo
Text: CD8-MerTK is a chimeric fusion protein consisting of the extracellular and transmembrane domains of the human CD8α (amino acids 1 to 209) at its N-terminus and the kinase domain and intracellular parts of MerTK (amino acids 521-994) at its C-terminus. To establish an in cell kinase assay for MerTK kinase, the IL-3 dependent Ba/F3 cells of murine lymphoid origin was transfected with CD8-MerTK. The resulting Ba/F3-CDM line was then validated that Ba/F3-CDM cell proliferation is completely dependent on the activity of MerTK kinase activity when growing in the absence of IL-3. For a routine cellular assay, Ba/F3-CDM cells were seeded at 2,000 cells per well in 384-well cell culture plate containing DMEM/10% FBS culture media and incubated for 24 hours before addition of compounds pre-diluted in culture media. Following compound treatment, cells were further incubated for 48 hours and the proliferation was measured. […] Cell growth and proliferation was measured with Celltiter-Glo™ system (Promega, USA) according to the manufacturer's instruction. The half-maximal growth inhibitory concentration (GI50) value was calculated with Prism6.0 software (GraphPad, USA).

human MER (528-end) = human MER (528-end) (Homo sapiens (Human), UniProt Q12866); test: HTRF Kinase Activity Biochemical Assay (KinEASE-TK); details: 10 uM ATP
Procedure: For the SAR (structure-activity relationship) and compound screening, HTRF (Homogeneous Time Resolved Fluorescence) kinase activity assay was employed for all MER, AXL and TYRO3 kinases using Cisbio HTRF® KinEASE™-TK kit (Cisbio, USA). The kit includes biotin-labeled TK substrate, streptavidin-XL665, Eu3+-cryptate-labeled TK antibody and HTRF® Detection buffer. There are two main steps in the kinase assay: kinase reaction and detection of phosphorylated substrate. The reaction was carried out in white low volume 384-well plate (Corning, USA) with 25 nL compound in dimethyl sulfoxide in each well. To measure the compound mediated inhibition of kinase activity, 2.5 uL the recombinant kinases were pre-incubated with test compounds for 30 minutes in the kinase reaction buffer (20 mM HEPES pH7.4, 2 mM MnCl2, 10 mM MgCl2, 100 uM Na3VO4, 0.0075% Triton X 100, 0.005% BSA and 1 mM DTT) prior to the addition of 2.5 uL of 1 uM biotin-labeled TK substrates and 10 uM ATP. […] After 1 h incubation at room temperature, the fluorescence intensity was measured with Envision™ plate reader (PerkinElmer, USA). […] The level of kinase activity was quantified by the HTRF ratio that calculated from the intensity of emission at 665 nm and emission at 620 nm (fluorescence intensity @ 665 nm/fluorescence intensity @ 620 nm×10,000). […]

Question: What does the source list for “2-amino-N-43R)-1-(4′-((methyl((1-methylpiperidin-3-yl)methyl)amino)methyl)-[1,1′-biphenyl]-4-carbonyl)pyrrolidin-3-yl)-5-(1-methyl-1H-pyrazol-4-yl)nicotinamide [Example 548]”?
Answer: pIC50 [1]: < 6.00; pIC50 (human MER (528-end)): < 6.00
